{"source": "ChEMBL document CHEMBL1157707", "about": "“Lead optimization of N-3-substituted 7-morpholinotriazolopyrimidines as dual phosphoinositide 3-kinase/mammalian target of rapamycin inhibitors: discovery of PKI-402” (J Med Chem, 2010)", "molecular_target": "T1, Phosphatidylinositol 4,5-bisphosphate 3-kinase catalytic subunit delta isoform (Homo sapiens, UniProt O00329)", "T1 sequence (O00329 whole entry)": "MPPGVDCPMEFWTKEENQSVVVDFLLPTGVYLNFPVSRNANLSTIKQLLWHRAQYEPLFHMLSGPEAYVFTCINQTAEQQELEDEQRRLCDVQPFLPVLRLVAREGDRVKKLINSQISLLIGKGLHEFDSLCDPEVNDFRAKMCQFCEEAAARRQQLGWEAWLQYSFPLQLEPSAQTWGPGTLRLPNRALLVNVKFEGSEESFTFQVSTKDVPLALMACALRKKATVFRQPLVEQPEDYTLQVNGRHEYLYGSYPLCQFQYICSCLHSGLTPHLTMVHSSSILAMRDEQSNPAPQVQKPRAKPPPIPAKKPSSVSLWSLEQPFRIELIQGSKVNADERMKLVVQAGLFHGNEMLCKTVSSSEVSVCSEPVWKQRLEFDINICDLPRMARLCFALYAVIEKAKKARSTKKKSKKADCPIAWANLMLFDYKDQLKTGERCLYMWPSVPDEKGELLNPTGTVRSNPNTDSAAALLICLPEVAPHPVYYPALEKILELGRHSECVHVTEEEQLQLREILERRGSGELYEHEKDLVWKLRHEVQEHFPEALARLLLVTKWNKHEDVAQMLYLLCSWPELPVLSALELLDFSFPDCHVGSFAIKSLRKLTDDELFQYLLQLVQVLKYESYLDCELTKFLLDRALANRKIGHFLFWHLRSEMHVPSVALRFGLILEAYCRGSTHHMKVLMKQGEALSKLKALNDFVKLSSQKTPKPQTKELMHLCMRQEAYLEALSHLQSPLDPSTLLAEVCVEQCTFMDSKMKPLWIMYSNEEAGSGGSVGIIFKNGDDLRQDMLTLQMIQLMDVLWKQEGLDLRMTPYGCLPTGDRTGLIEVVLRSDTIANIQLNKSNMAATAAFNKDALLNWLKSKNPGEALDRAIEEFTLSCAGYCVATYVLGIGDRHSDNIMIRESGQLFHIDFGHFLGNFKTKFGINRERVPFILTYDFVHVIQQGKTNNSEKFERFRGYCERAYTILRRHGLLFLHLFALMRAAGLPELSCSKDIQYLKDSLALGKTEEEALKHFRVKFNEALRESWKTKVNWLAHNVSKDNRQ", "note": "pIC50: −log10 of the molar value."}
{"molecule": "CCn1nnc2c(N3CCOCC3)nc(-c3ccc(NC(=O)Nc4ccc(C(=O)N5CCN(C)CC5)cc4)cc3)nc21", "values": [{"measurement": "pIC50", "value": 7.80}]}
